The entries are a selection whose mix differs from that of the whole data set. Some salts and complexes are drawn in separate pieces, as the source files them; their charges need not balance. Active and inactive are the calls of the source.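 Rule for the calls: active = GFP response relative to DMSO above a set limit, near screen average plus 3 SD (cut at about 150% in these data); inconclusive = fewer than 70 cells counted for the yeast strain; inactive = the rest.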
Assay: yeast AGP1-GFP level changes, GLN3 branch – cell-based, multiplex flow cytometry, S. cerevisiae, MLPCN library, primary screen (AID 2066);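 note: median GFP channel fluorescence of the gated AGP1 strain per well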
Details: 3 h, at 10 µM, active compounds read high, GFP as percent of DMSO wells

Q: With CCN(CC)CCCOC(=O)C(O)(c1ccccc1)c1ccccc1 as the compound, how does the GFP response vs DMSO read?
A: inactive: 106%

Q: Which GFP response vs DMSO does the source give for Cc1cc(C)cc(OP(C)(N)=O)c1 (stereo unspecified) here?
A: inactive: 100%

Q: Which GFP response vs DMSO does the source give for COc1ccccc1OP(C)(=O)Nc1cc(Cl)ccc1C (stereo unspecified) here?
A: inactive: 102%

Q: With COc1ccccc1OP(C)(=O)Nc1ccc(C)cc1 (stereo unspecified) as the compound, how does the GFP response vs DMSO read?
A: inactive: 90.4%

Q: Which GFP response vs DMSO does the source give for Cc1ccc(NP(C)(=O)Oc2ccccc2)c(C)c1 (stereo unspecified) here?
A: inactive: 94.3%

Q: Which GFP response vs DMSO does the source give for CCOC(=O)c1ccc(NP(C)(=O)Oc2ccccc2)cc1 (stereo unspecified) here?
A: inactive: 100%

Q: For O=[N+]([O-])c1ccc2c(c1)C=Nc1ccccc1O2, which GFP response vs DMSO is on record?
A: inactive: 98.9%

Q: With CC(C)(C)c1ccc(OP(C)(=O)Nc2ccc(SC(F)(F)F)cc2)cc1 (stereo unspecified) as the compound, how does the GFP response vs DMSO read?
A: inactive: 91.7%

Q: Which GFP response vs DMSO does the source give for Cc1cccc(C)c1OP(C)(N)=O (stereo unspecified) here?
A: inactive: 103%

Q: For O=[N+]([O-])c1cc([N+](=O)[O-])c(Nc2cccnc2)c([N+](=O)[O-])c1, which GFP response vs DMSO is on record?
A: inactive: 81%

Q: With CP(=O)(Nc1ccccc1Br)Oc1ccccc1 (stereo unspecified) as the compound, how does the GFP response vs DMSO read?
A: inactive: 98.8%

Q: With COc1ccccc1OP(C)(=O)Nc1ccccc1 (stereo unspecified) as the compound, how does the GFP response vs DMSO read?
A: inactive: 105%

Q: Which GFP response vs DMSO does the source give for CP(=S)(Nn1cnnc1)Oc1ccccc1 (stereo unspecified) here?
A: inactive: 97.4%

Q: Which GFP response vs DMSO does the source give for CP(=O)(Nc1ccccn1)Oc1ccc(Cl)cc1 (stereo unspecified) here?
A: inactive: 95.7%

Q: Which GFP response vs DMSO does the source give for O=[N+]([O-])c1cc([N+](=O)[O-])c(O)c([N+](=O)[O-])c1.c1ccc(Oc2ccncc2)cc1 here?
A: inactive: 104%

Q: With CCOC(=O)c1ccc(NP(C)(=O)Oc2ccc(OC)cc2)cc1 (stereo unspecified) as the compound, how does the GFP response vs DMSO read?
A: inactive: 96%

Q: For CCOP(C)(=S)SCC(=O)NC(C)C(=O)O (stereo unspecified), which GFP response vs DMSO is on record?
A: inactive: 110%

Q: For CP(=O)(NC(=O)Nc1ccccc1)Oc1ccccc1 (stereo unspecified), which GFP response vs DMSO is on record?
A: inactive: 95%

Q: For CCc1ccc(OP(C)(=O)N2CCN(c3ccc([N+](=O)[O-])cc3)CC2)cc1 (stereo unspecified), which GFP response vs DMSO is on record?
A: inactive: 101%

Q: Which GFP response vs DMSO does the source give for Cc1cc(C)cc(OP(C)(=O)Nc2ccc(SC(F)(F)F)cc2)c1 (stereo unspecified) here?
A: inactive: 107%

Q: For CP(=O)(Nc1ccc(SC(F)(F)F)cc1)Oc1ccc(Cl)cc1 (stereo unspecified), which GFP response vs DMSO is on record?
A: inactive: 104%

Q: With Cc1cccc(C)c1OP(C)(=O)Nc1ccc(SC(F)(F)F)cc1 (stereo unspecified) as the compound, how does the GFP response vs DMSO read?
A: inactive: 90%

Q: With CP(=O)(Oc1ccccc1)OC(c1ccccc1)C(F)(F)F (stereo unspecified) as the compound, how does the GFP response vs DMSO read?
A: inactive: 98.9%

Q: For Cc1nc2ccc3ccccc3c2s1.O=[N+]([O-])c1cc([N+](=O)[O-])c(O)c([N+](=O)[O-])c1, which GFP response vs DMSO is on record?
A: inactive: 91%

Q: With O=[N+]([O-])c1cc([N+](=O)[O-])c(-c2cnn(-c3ccccc3)c2)c([N+](=O)[O-])c1 as the compound, how does the GFP response vs DMSO read?
A: inactive: 92.9%

Q: With O=[N+]([O-])c1cc([N+](=O)[O-])c(-n2nnc3ccccc32)c([N+](=O)[O-])c1 as the compound, how does the GFP response vs DMSO read?
A: inactive: 99.7%

Q: Which GFP response vs DMSO does the source give for CCCOc1ccc(NP(C)(=O)Oc2ccc(Cl)cc2)cc1 (stereo unspecified) here?
A: inactive: 106%

Q: For CP(=O)(Nc1ccc(SC(F)(F)F)cc1)Oc1ccccc1 (stereo unspecified), which GFP response vs DMSO is on record?
A: inactive: 101%

Q: With CN1CCCCC1COC(=O)C1(O)c2ccccc2CCc2ccccc21 (stereo unspecified) as the compound, how does the GFP response vs DMSO read?
A: inactive: 92.6%

Q: For COc1ccccc1OP(C)(=O)Nc1c(C)cccc1C (stereo unspecified), which GFP response vs DMSO is on record?
A: inactive: 102%

Q: For CC1=C2N=C(C=C3N=C(C(C)=C4[N-][C@@](C)([C@@H]5N=C1[C@](C)(CCC(=O)NC[C@@H](C)OP(=O)([O-])O[C@H]1[C@@H](O)[C@@H](n6cnc7cc(C)c(C)cc76)O[C@@H]1CO)[C@H]5CC(N)=O)[C@@](C)(CC(N)=O)[C@@H]4CCC(N)=O)[C@@](C)(CC(N)=O)[C@@H]3CCC(N)=O)C(C)(C)[C@@H]2CCC(N)=O.[C-]#N.[Co+3], which GFP response vs DMSO is on record?
A: inactive: 76.7%

Q: For O=[N+]([O-])c1cc([N+](=O)[O-])c(Nc2nnnn2CCO)c([N+](=O)[O-])c1, which GFP response vs DMSO is on record?
A: inactive: 102%

Q: Which GFP response vs DMSO does the source give for CCOC(=O)C(CC)C1=NC(C)(C)Cc2ccccc21.O=[N+]([O-])c1cc([N+](=O)[O-])c(O)c([N+](=O)[O-])c1 (stereo unspecified) here?
A: inactive: 105%

Q: With CC1=NCCc2c1[nH]c1ccccc21.O=[N+]([O-])c1cc([N+](=O)[O-])c(O)c([N+](=O)[O-])c1 as the compound, how does the GFP response vs DMSO read?
A: inactive: 101%

Q: With O=C(O)c1cccc(Nc2c([N+](=O)[O-])cc([N+](=O)[O-])cc2[N+](=O)[O-])c1 as the compound, how does the GFP response vs DMSO read?
A: inactive: 104%

Q: With Cc1ccc(C)c(NP(C)(=O)Oc2ccccc2)c1 (stereo unspecified) as the compound, how does the GFP response vs DMSO read?
A: inactive: 104%

Q: For Cc1cc(C)cc(OP(C)(=O)Nc2ccccn2)c1 (stereo unspecified), which GFP response vs DMSO is on record?
A: inactive: 95.5%

Q: For CP(=O)(Nc1cccc(Br)c1)Oc1ccccc1 (stereo unspecified), which GFP response vs DMSO is on record?
A: inactive: 112%

Q: With CCOC(=O)c1ccc(NP(C)(=O)Oc2cc(C)cc(C)c2)cc1 (stereo unspecified) as the compound, how does the GFP response vs DMSO read?
A: inactive: 101%

Q: Which GFP response vs DMSO does the source give for Cc1cc(C)cc(OP(C)(=O)Nc2ccc(C)cc2C)c1 (stereo unspecified) here?
A: inactive: 97.4%

Q: For COc1ccccc1OP(C)(=O)Nc1cccc(Br)c1 (stereo unspecified), which GFP response vs DMSO is on record?
A: inactive: 115%

Q: For COc1ccc2c(c1O)-c1c(O)c(OC)cc3c1[C@H](C2)[N+](C)(C)CC3.O=[N+]([O-])c1cc([N+](=O)[O-])c([O-])c([N+](=O)[O-])c1[O-], which GFP response vs DMSO is on record?
A: inactive: 95.5%

Q: For O=C(OC1CN2CCC1CC2)c1ccc([N+](=O)[O-])cc1 (stereo unspecified), which GFP response vs DMSO is on record?
A: inactive: 101%

Q: With O=C(OCCN1CCN(CCOCc2ccccc2)CC1)C(O)(c1ccccc1)c1ccccc1 as the compound, how does the GFP response vs DMSO read?
A: inactive: 101%

Q: With CP(=O)(Nc1ccccc1F)Oc1ccccc1 (stereo unspecified) as the compound, how does the GFP response vs DMSO read?
A: inactive: 82%

Q: Which GFP response vs DMSO does the source give for CC(C)c1ccc(OP(C)(=O)Nc2ccc(SC(F)(F)F)cc2)cc1 (stereo unspecified) here?
A: inactive: 105%

Q: Which GFP response vs DMSO does the source give for CP(=O)(Nc1ccccc1)Oc1ccc(F)cc1 (stereo unspecified) here?
A: inactive: 101%

Q: With O=[N+]([O-])c1cc([N+](=O)[O-])c(OC2CCCCC2O)c([N+](=O)[O-])c1 (stereo unspecified) as the compound, how does the GFP response vs DMSO read?
A: inactive: 101%

Q: With CCCCCOc1ccc(NP(C)(=O)Oc2ccc(Cl)cc2Cl)cc1 (stereo unspecified) as the compound, how does the GFP response vs DMSO read?
A: inactive: 115%

Q: For CCN(CC)CCCOC(=O)C(O)(c1ccccc1)C1CCCCC1 (stereo unspecified), which GFP response vs DMSO is on record?
A: inactive: 105%

Q: With CCOC(=O)c1ccc(NP(C)(=O)Oc2ccc(F)cc2)cc1 (stereo unspecified) as the compound, how does the GFP response vs DMSO read?
A: inactive: 105%

Q: Which GFP response vs DMSO does the source give for COc1ccc(OP(C)(=O)Nc2ccc(SC(F)(F)F)cc2)cc1 (stereo unspecified) here?
A: inactive: 97.9%

Q: Which GFP response vs DMSO does the source give for O=[N+]([O-])c1ccc(OP2(=O)COCCO2)cc1 (stereo unspecified) here?
A: inactive: 95.1%

Q: With O=[N+]([O-])c1cc([N+](=O)[O-])c(NCC2CCS(=O)(=O)C2)c([N+](=O)[O-])c1 (stereo unspecified) as the compound, how does the GFP response vs DMSO read?
A: inactive: 98%

Q: With CN(C)CCOC(=O)C(O)(c1ccccc1)C1CCCCC1 (stereo unspecified) as the compound, how does the GFP response vs DMSO read?
A: inactive: 107%

Q: Which GFP response vs DMSO does the source give for COc1ccc(NP(C)(=O)Oc2ccccc2OC)cc1 (stereo unspecified) here?
A: inactive: 103%

From PubChem BioAssay AID2066 (NMMLSC, 2009)
